Assay [1] addresses Casein kinase I isoform delta (Homo sapiens, UniProt P48730). Briefly: Binding affinity to CSNK1D (unknown origin).
The target in assay [2] is Dual specificity protein kinase CLK4 (Homo sapiens, UniProt Q9HAZ1). Briefly: Binding affinity to CLK4 (unknown origin).
For assay [3], the target named is T1, Dual specificity protein kinase CLK3 (Homo sapiens, UniProt P49761). The experiment in a line: Inhibition of CLK3 (R134 to T484 residues) (unknown origin) at 15 uM by isothermal titration calorimetry. On the technique in general: In ITC the heat of successive injections is recorded.
Assay [4] deals with Dual specificity tyrosine-phosphorylation-regulated kinase 1A (Homo sapiens, UniProt Q13627). Briefly: Binding affinity to DYRK1A (unknown origin).
The target of assay [5] is T1, Dual specificity protein kinase CLK3. The experiment in a line: Binding affinity to CLK3 (unknown origin).
The target of assay [6] is Casein kinase I isoform epsilon (Homo sapiens, UniProt P49674). The experiment in a line: Binding affinity to CSNK1E (unknown origin).
For assay [7], the target named is T1, Dual specificity protein kinase CLK3. Briefly: Inhibition of recombinant CLK3 (unknown origin) using Ac-ERMRPRKRQGSVdP(Sox)G-NH2 as substrate after 5 mins by Omnia Kinase Assay.

Chains of the proteins cited; added tags and fusions are not shown. Lines headed by an entry give the natural chain unless they say otherwise; changes in a name come on top.
UniProt P48730: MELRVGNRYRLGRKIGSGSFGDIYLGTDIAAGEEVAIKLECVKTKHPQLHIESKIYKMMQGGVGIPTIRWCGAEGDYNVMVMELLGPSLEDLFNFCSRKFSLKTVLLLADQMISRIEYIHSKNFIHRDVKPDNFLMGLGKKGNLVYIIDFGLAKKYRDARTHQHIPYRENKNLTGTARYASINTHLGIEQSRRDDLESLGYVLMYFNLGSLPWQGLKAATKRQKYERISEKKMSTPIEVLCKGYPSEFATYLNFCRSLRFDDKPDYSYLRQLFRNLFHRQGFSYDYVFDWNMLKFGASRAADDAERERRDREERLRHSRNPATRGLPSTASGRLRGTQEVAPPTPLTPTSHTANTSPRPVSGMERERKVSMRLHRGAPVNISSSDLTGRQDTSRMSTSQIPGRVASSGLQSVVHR
UniProt Q9HAZ1: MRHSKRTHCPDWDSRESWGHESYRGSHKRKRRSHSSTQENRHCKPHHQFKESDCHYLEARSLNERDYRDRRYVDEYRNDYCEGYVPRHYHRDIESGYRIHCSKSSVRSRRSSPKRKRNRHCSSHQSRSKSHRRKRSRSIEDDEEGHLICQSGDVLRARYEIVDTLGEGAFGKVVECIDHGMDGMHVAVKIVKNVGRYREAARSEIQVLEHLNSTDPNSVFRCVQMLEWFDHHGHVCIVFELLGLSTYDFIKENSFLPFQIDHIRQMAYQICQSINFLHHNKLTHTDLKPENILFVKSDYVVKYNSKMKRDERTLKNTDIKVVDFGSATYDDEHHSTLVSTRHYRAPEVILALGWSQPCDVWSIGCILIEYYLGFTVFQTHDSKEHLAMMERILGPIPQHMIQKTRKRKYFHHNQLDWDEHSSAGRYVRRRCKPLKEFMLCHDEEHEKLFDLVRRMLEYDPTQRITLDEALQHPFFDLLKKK
UniProt P49761: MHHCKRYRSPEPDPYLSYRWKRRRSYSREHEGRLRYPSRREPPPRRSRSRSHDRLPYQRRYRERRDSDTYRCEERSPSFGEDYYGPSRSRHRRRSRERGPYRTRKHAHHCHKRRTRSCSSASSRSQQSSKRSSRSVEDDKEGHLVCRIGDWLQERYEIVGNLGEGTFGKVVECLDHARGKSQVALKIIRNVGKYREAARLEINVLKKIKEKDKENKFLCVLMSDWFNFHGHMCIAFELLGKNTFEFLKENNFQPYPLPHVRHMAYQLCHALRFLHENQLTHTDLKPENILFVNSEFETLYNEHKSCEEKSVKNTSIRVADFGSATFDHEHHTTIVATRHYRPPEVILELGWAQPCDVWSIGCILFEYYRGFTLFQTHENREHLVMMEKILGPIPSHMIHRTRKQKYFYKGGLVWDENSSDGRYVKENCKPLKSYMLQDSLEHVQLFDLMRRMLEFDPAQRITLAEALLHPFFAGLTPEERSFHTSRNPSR
UniProt P49674: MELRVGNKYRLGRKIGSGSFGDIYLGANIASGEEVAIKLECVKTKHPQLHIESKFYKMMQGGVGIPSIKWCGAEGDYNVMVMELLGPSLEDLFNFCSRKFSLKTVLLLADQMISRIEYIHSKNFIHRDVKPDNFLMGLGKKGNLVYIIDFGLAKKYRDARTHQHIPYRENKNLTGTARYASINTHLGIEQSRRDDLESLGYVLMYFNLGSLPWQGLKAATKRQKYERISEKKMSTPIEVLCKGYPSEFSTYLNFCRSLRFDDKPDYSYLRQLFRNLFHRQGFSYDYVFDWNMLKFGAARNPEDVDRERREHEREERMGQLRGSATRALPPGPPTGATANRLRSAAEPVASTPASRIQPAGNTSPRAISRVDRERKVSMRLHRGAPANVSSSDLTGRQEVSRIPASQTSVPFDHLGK

Each structure is given as a SMILES string.

Usually Kd stands for the free concentration of one partner at which half of the binding sites on the other are occupied at equilibrium, for simple one-to-one binding. A higher Kd goes with a looser complex. For orientation: Ki means the dissociation constant of the complex between target and ligand, obtained from inhibition or displacement. Turning to `CCN1/C(=C\C(C)=O)Sc2ccc(OC)cc21`, the Kd is 100 nM in assay [1]; < 100 nM in assay [2]; 7780 nM in assay [3]; 100 nM in assay [4]; 1000 nM in assay [5]; 100 nM in assay [6]. Further, the Ki in assay [7] turned out to be 5200 nM.

Source of the values: ChEMBL document CHEMBL4725345, “DFG-1 Residue Controls Inhibitor Binding Mode and Affinity, Providing a Basis for Rational Design of Kinase Inhibitor Selectivity” (J Med Chem, 2020).
